Measurements taken from publication PMC10215740, “Concentrations of Co-Administered Meropenem and Vancomycin in Spinal Tissues Relevant for the Treatment of Pyogenic Spondylodiscitis—An Experimental Microdialysis Study” (Antibiotics, 2023).

Experiment: Plasma and spinal tissue pharmacokinetics by microdialysis after single-dose co-administered i.v. meropenem and vancomycin
Conditions: for AUCtissue/AUCplasma (tissue penetration): ratio tissue-free/plasma-free AUC0-8h, pigs n = 8, single i.v. 1000 mg meropenem + 1000 mg vancomycin
Source text: Eight female pigs (Danish Landrace breed, weight 78–82 kg) were included. In general anaesthesia, microdialysis catheters were placed in the third cervical (C3) vertebral cancellous bone, the C3-C4 intervertebral disc, paravertebral muscle, and adjacent subcutaneous tissue. Plasma samples were obtained as a reference. Abiding by the recommendations of replacement, reduction, and refinement (the 3 Rs) when conducting animal studies, the data sampled in extrathecal spinal tissues in the present study are derived from animals where lower extremity data were reported previously. […] The dose and mode of administration used were in accordance with the clinical practice at our institution. Sampling was conducted for 8 h.
(Figure 3). The microdialysis catheters used were CMA 70 (membrane length 10 and 20 mm, molecular mass cut of 20 kDa; M Dialysis AB, Stockholm, Sweden). Through an anterolateral approach, the C2, C3, and C4 vertebrae were exposed. Using a 2 mm drill, a 25 mm drill hole was made into the C3 vertebra in which a 20 mm microdialysis catheter was placed. Afterward, with aid from a splitable microdialysis introducer (M Dialysis AB, Stockholm, Sweden), a 10 mm microdialysis catheter was positioned in the C3-C4 intervertebral disc, and a 20 mm microdialysis catheter was positioned in both the exposed paravertebral muscle and adjacent subcutaneous tissue. Correct positioning of the microdialysis catheters in the vertebra and the intervertebral disc was verified by fluoroscopy. The catheters were connected to precision pumps (CMA 107; M Dialysis AB, Stockholm, Sweden) and perfused with 0.9% NaCl solution at a flow rate of 1 μL/min.
After catheter placement, microdialysis sampling was initiated with a tissue-equilibration period of 20 min prior to the antibiotic intravenous administration. […] Microdialysates were collected at 30 min intervals for the first 4 h, and at 60 min intervals for the last 4 h, resulting in a total of 12 samples during an 8-h dosing interval. At the midpoint of each sampling interval, blood samples were collected from a central venous catheter for reference. The blood samples were stored at 5 °C for a maximum of 6 h before being centrifuged (room temperature, 3000 g, 10 min), and plasma aliquots were made. […] The recovery sample was later used for individual catheter calibration and calculation of absolute tissue concentrations. […]
The free drug concentration of meropenem in plasma was quantified using ultra-high performance liquid chromatography (UHPLC).

CN[C@H](CC(C)C)C(=O)N[C@H]1C(=O)N[C@@H](CC(N)=O)C(=O)N[C@H]2C(=O)N[C@H]3C(=O)N[C@H](C(=O)N[C@H](C(=O)O)c4cc(O)cc(O)c4-c4cc3ccc4O)[C@H](O)c3ccc(c(Cl)c3)Oc3cc2cc(c3O[C@@H]2O[C@H](CO)[C@@H](O)[C@H](O)[C@H]2O[C@H]2C[C@](C)(N)[C@H](O)[C@H](C)O2)Oc2ccc(cc2Cl)[C@H]1O [Vancomycin, vancomycin]
Tmax (intervertebral disc, microdialysis, pigs, one disc catheter malfunctioned, single i.v. 1000 mg meropenem + 1000 mg vancomycin co-administered, mean (95%CI)): 275 (225; 325) min
AUCtissue/AUCplasma (tissue penetration) (paravertebral muscle): 0.36 (0.24; 0.47)
AUCtissue/AUCplasma (tissue penetration) (subcutaneous tissue): 0.53 (0.41; 0.64)
AUCtissue/AUCplasma (tissue penetration) (vertebral cancellous bone): 0.24 (0.12; 0.35)^b

Marks after values point to notes of the source that are not given here.
